# Compound activity from PubChem BioAssay.
# Compounds with a hit are over-represented: about 16% of the library has one in this group of screens.
# miR-21 reporter: miR-21 reporter, rising signal; HeLa miR-21 FLuc reporter, luciferase, 48 h; Potency, µM (top dose mostly 38.3 µM), without a hit: at the top dose reporter change, positive = more light; 340,000 tested, under 10 active; active = well fitted rising curve with a large enough effect; inconclusive = small, poorly fitted or top-dose-only effect; inactive = no such curve, though single readings can be large or run the other way;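 note: % of control where 0% means no effect; miR-21 action dims this reporter so a rising signal means less miR-21 action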
#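 Using DMEM plus 10% FBS, HeLa miR-21-FLuc cells are incubated with test compounds (final up to about 40uM) for 48 hours; firefly luciferase signal is then imaged following reagent-mediated lysis.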
# DT40 TDP1 no CPT: qHTS for Inhibitors of human tyrosyl-DNA phosphodiesterase 1 (TDP1): qHTS in cells in absence of CPT | AID 686978, 2013 | 420,000 tested, 15% active | DT40 Tdp1-/- hTDP1 cells, no CPT, ATP luminescence, 48 h | Potency, µM (titrated, usually from 46.2 µM), for the others: top-dose activity change, negative = growth inhibition, most hits filed as inhibitors; note: potency is the fitted concentration of half-maximal effect; % is set by controls: 0 for no effect and ±100 for the full control effect; nearly all actives have a fitted effect of over 55% in size
#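 Compound effects on proliferation are scored in DT40 Tdp1-/-;hTDP1 cells in the absence of CPT. ATP levels (CellTiter-Glo luminescence) are recorded after a ≥48 hr, 37 °C incubation.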
# uPA surface inh: inhibitors of cell surface uPA generation | AID 540303 | cell surface uPA generation assay, qHTS | Potency, µM (titrated, usually from 38.3 µM), inactives show top-dose activity change, negative = inhibition, most hits filed as inhibitors | 330,000 tested, 0.31% active; active = well fitted inhibition curve with a large enough effect; inconclusive = small, poorly fitted or top-dose-only effect; inactive = no such curve, though single readings can be large or run the other way; tested in mouse RAW 264.7 cells; note: potency is the fitted concentration of half-maximal effect; % is set by controls: 0 for no effect and ±100 for the full control effect; nearly all actives have a fitted effect of over 55% in size
# DT40 TDP1 CPT: DT40-hTDP1 cell growth loss with CPT; 420,000 tested, 12% active; chicken DT40 Tdp1-/-;hTDP1 cells + 20 nM CPT, ATP luminescence, 48 h; Potency, µM (highest dose often 46.2 µM), for the others: at the highest dose activity change, negative = growth inhibition, actives largely listed as inhibitors; note: potency is the fitted concentration of half-maximal effect; % is set by controls: 0 for no effect and ±100 for the full control effect; nearly all actives have a fitted effect of over 55% in size
#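 Chicken DT40 Tdp1-/- cells stably complemented with human TDP1 were seeded at 400 cells/well in medium containing 20 nM camptothecin, exposed to pin-transferred compounds, and grown at 37 °C for at least 48 hr. Viability was read as ATP luminescence.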
# TDP1 inh: blocks human tyrosyl-DNA phosphodiesterase 1 | Q9NUW8 | recombinant TDP1, AlphaScreen DNA substrate cleavage | Potency, µM (titrated, usually from 130 µM), for the others: at the top dose activity change, negative = inhibition, hits mostly inhibitors | 350,000 tested, 0.28% active | AID 485290; note: potency is the fitted concentration of half-maximal effect; % is set by controls: 0 for no effect and ±100 for the full control effect; nearly all actives have a fitted effect of over 40% in size
#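 Recombinant human Tdp1 (E. coli-expressed, 1 nM final) preincubated with compounds 15 min at room temperature, then 5'-biotin/3'-phosphotyrosine-FITC DNA substrate (15 nM final) added for 5 min. AlphaScreen beads (10 ug/ml final) added 10 min; cleavage lowers signal.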
# Active calls of the source: *; ? = inconclusive; . = not tested or not shown; [ ] = dose if it differs, or a comment. Unless noted, calls come from the whole dose curve; as a rule, active = well fitted curve in the direction sought with a large enough effect; inconclusive = small, poorly fitted or top-dose-only effect, or another doubt; inactive = no such curve, though single readings can be large; an effect the other way counts as inactive or inconclusive.
canonical_smiles	TDP1 inh	DT40 TDP1 CPT	miR-21 reporter	DT40 TDP1 no CPT	uPA surface inh
O=[N+]([O-])c1cc(C(F)(F)F)ccc1NCCCCNS(=O)(=O)c1ccc2ccccc2c1	9%	21µM*	-5%	23µM*	.
O=C(NCCCNc1ccc(C(F)(F)F)cc1[N+](=O)[O-])c1ccc(F)cc1	5%	16µM*	0%	23µM*	-1%
O=[N+]([O-])c1cc(C(F)(F)F)ccc1NCCc1ccccn1	.	-10%	.	?	?
Cc1ccc(C(=O)NCCCNc2ccc(C(F)(F)F)cc2[N+](=O)[O-])cc1	2%	-18%	-2%	?	3%
O=C(CCN1CCN(Cc2ccccc2)CC1)NNC(=O)Nc1cccc(C(F)(F)F)c1	6%[56.1 µM]	4%	3%	3%	-3%
Cc1ccc(S(=O)(=O)N2CCC(=O)N([C@H](COCc3cccc(Cl)c3)C(C)C)CC2)cc1	.	21µM*	.	16µM*	.
Cc1ccc(S(=O)(=O)N2CCC(=O)N(C(COCc3cccc(Cl)c3)C(C)C)CC2)cc1 (stereo not drawn)	3%	?	-11%	21µM*	-9%
Cc1ccc(S(=O)(=O)N2CCC(=O)N(C(COCc3cccc(C)c3)C(C)C)CC2)cc1 (stereo not drawn)	-5%	?	-8%	?	7%
Cc1ccc(S(=O)(=O)N2CCC(=O)N(C(COCc3cccc(C(F)(F)F)c3)C(C)C)CC2)cc1 (stereo not drawn)	0%	16µM*	6%	21µM*	-21%
CCCN(CCC)C(=O)CC(c1ccc(F)cc1)c1ccco1 (stereo not drawn)	3%	?	-1%	21µM*	-5%
O=C(CN1CCN(c2nc(-c3ccccc3)cs2)CC1)NNC(=O)c1ccc(Br)cc1	5%	?	1%	-23%	-2%
CCN(CC)CCCNC(=S)N1CCN(c2nc(-c3ccccc3)cs2)CC1	8%	?	17%	18µM*	-5%
COc1cccc(-c2csc(N3CCN(C(=S)Nc4cccc(Cl)c4)CC3)n2)c1	2%	-15%	2%	-25%	-19%
COc1ccc(-c2nnn(CC(=O)N3CCN(c4ccc(F)cc4)CC3)n2)cc1	1%	-5%	6%	15%	1%
O=C(NC(=S)N1CCN(c2nc(-c3ccccc3)cs2)CC1)c1cncc(Br)c1	6%	10µM*	8%	?	0%
CCCCNC(=S)N1CCN(c2nc3ccccc3s2)CC1	-5%	?	-1%	?	-3%
CC(C)CNC(=S)N1CCN(c2nc(-c3ccc(Cl)cc3)cs2)CC1	.	?	27%	16µM*	-3%
COc1ccc(N2CCN(C(=O)CN3CCN(c4nc(-c5ccc(F)cc5)cs4)CC3)CC2)cc1	9%	5.8µM*	-1%	7.3µM*	0%
CCOC(=O)c1ccc(NC(=O)C2CCN(S(=O)(=O)c3c(C)nn(C)c3C)CC2)cc1	.	-23%	5%	-28%	8%
CSc1ncccc1C(=O)OCC(=O)N(C)C1CCS(=O)(=O)C1 (stereo not drawn)	4%	4%	-1%	1%	2%
Clc1ccc(-c2csc(N3CCSCC3)n2)cc1	1%	-16%	-53%	29%	14%
c1ccc(-c2csc(N3CCSCC3)n2)cc1	12%	10%	-44%	2%	4%
O=C(c1cc(-n2cnnc2)ccc1Cl)N1CCN(c2nc(-c3ccccc3)cs2)CC1	2%	16µM*	0%	23µM*	-12%
COCCCNC(=S)N1CCN(c2nc(-c3ccc(Cl)cc3)cs2)CC1	.	?	.	18µM*	.
CCC(=O)N1CCN(c2nc(-c3ccc(Cl)cc3)cs2)CC1	5%[56.1 µM]	23µM*	-14%	23µM*	-3%
COCCNC(=S)N1CCN(c2ccc(Cl)cc2)CC1	5%	-26%	-2%	-40%	-1%
COCCCNC(=S)N1CCN(c2nc(-c3ccccc3)cs2)CC1	.	16µM*	16%	12µM*	-20%
Cc1ccc(SCC(=O)NN2C(=O)c3ccccc3C2=O)cc1	0%	1%	-1%	-5%	3%
Cc1c(C(=O)NCc2ccc(C#N)cc2)sc(=O)n1Cc1ccccn1	.	-5%	.	2%	.
CCOC(=O)CN1C(=O)C(=O)N(Cc2cccc(C)c2)C1=O	.	8%	-2%	-2%	-4%
COc1ccc(N2CCN(C(=O)c3csc4ccccc34)CC2)cc1	2%	-21%	-7%	?	.
O=C(c1csc2ccccc12)N1CCN(c2ccc(Cl)c(Cl)c2)CC1	-2%	21µM*	-2%	23µM*	-1%
CCCCCOc1ccc(CN2CCOCC2)cc1Cl	3%	-25%	-26%	-19%	4%
CCCCCOc1ccc(Br)cc1CSC(=N)N	6%	5.2µM*	?	2.3µM*	?
COc1ccc(Br)cc1CSC(=N)N	6%	?	8%	?	-15%
CCCCOc1ccc(CSC(=N)N)cc1Cl	.	15µM*	25%	18µM*	-2%
CCOc1ccc(CC(C(N)=O)C(N)=O)cc1	4%	-7%	4%	-10%	0%
CCOc1ccc(CSC(=N)N)cc1	0%	26µM*	8%	18µM*	-9%
Cc1ccc2c(c1)c1c3n2CCN(CCC#N)C3CCC1 (stereo not drawn)	.	?	.	-12%	.
CCOc1cc(C(=O)N2CCn3c4c(c5cc(C)ccc53)CCCC42)cc(OCC)c1OCC (stereo not drawn)	6%	.	-2%	.	.
CCN1CCn2c3c(c4cc(C)ccc42)CCCC31 (stereo not drawn)	1%	?	-30%	23µM*	9%
CCCN(CCC)S(=O)(=O)c1ccc(C(=O)N2CCn3c4c(c5cc(C)ccc53)CCCC42)cc1 (stereo not drawn)	-1%	16µM*	0%	?	.
CC(=O)N1CCn2c3c(c4cc(C)ccc42)CCCC31 (stereo not drawn)	8%	-6%	-4%	-24%	-4%
Cc1ccc2c(c1)c1c3n2CCN(C(=O)CCl)C3CCC1 (stereo not drawn)	.	4.6µM*	20%	3.3µM*	-12%
S=C1NCc2cncnc2N1	.	-1%	.	6%	.
O=C(c1ccc(S(=O)(=O)N2CCCC2)cc1)N1CCN(Cc2ccc3c(c2)OCO3)CC1	7%	?	1%	16µM*	4%
Cc1ccc(S(=O)(=O)N2CCN(Cc3cccc(F)c3)CC2)cc1	.	-6%	.	-23%	-1%
COc1ccc(CN2CCN(C(=O)c3ccc(S(=O)(=O)N4CCCCCC4)cc3)CC2)cc1F	-1%	21µM*	.	21µM*	-29%

# One compound at a time, from the list above.
# `O=C(c1ccc(S(=O)(=O)N2CCCC2)cc1)N1CCN(Cc2ccc3c(c2)OCO3)CC1` across the screens: TDP1 inh = 7%; DT40 TDP1 CPT = ?; miR-21 reporter = 1%; DT40 TDP1 no CPT = 16µM*; uPA surface inh = 4%
# `CCCN(CCC)S(=O)(=O)c1ccc(C(=O)N2CCn3c4c(c5cc(C)ccc53)CCCC42)cc1` (stereo not drawn) across the screens: TDP1 inh = -1%; DT40 TDP1 CPT = 16µM*; miR-21 reporter = 0%; DT40 TDP1 no CPT = ?; uPA surface inh = .
# `Cc1ccc2c(c1)c1c3n2CCN(C(=O)CCl)C3CCC1` (stereo not drawn) across the screens: TDP1 inh = .; DT40 TDP1 CPT = 4.6µM*; miR-21 reporter = 20%; DT40 TDP1 no CPT = 3.3µM*; uPA surface inh = -12%
